Source: patent publication EP4834897A1, “COMPOUNDS WITH TWO AZAHETEROCYCLES SUBSTITUTED ISOINDOLINONE SKELETON AND USES THEREOF” (dated 2026)

Protein sequences, listed by entry. Tags and fused reporters are not part of them.
UniProt Q96SW2, whole entry: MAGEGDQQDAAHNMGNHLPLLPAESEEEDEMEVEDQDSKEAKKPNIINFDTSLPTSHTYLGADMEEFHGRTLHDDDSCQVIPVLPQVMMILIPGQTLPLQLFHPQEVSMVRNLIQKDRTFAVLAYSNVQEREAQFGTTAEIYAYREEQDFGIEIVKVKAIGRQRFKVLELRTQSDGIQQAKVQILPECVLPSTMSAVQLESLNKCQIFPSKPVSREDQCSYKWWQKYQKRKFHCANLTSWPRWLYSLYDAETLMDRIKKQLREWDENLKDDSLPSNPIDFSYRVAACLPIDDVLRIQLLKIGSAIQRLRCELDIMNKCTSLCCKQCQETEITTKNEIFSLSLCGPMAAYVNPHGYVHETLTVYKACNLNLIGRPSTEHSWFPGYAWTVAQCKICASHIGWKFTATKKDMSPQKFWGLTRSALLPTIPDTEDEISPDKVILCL

Target: CRBN (Homo sapiens, UniProt Q96SW2)
Test: CRBN binding affinity by HTRF (CEREBLON BINDING kit)
Settings: for IC50: read-out: HTRF IC50, human Cereblon WT GST-tagged protein, 3 hours at room temperature; for Inhibition Rate at 0.5 µM (%) / Inhibition Rate at 2 µM (%): CRBN binding, HTRF; for Inhibition Rate at 0.5 µM (%): compound at 0.5 µM; for Inhibition Rate at 2 µM (%): compound at 2 µM

IC50 [nM]	Inhibition Rate at 0.5 µM (%)	Inhibition Rate at 2 µM (%)	Compound
1500 to 1900	–	–	CC1(C)CCC(C(=O)N2CCN(C3CCN(Cc4ccc5c(c4)CN(N4CCC(=O)NC4=O)C5=O)CC3(F)F)CC2)=C(c2ccc(Cl)cc2)C1 (stereo not shown)
–	a4 (40% < a4 ≤ 53%)	a7 (70% < a7 ≤80%)	O=C1CCC(N2Cc3ccc(C(=O)N4CCC(N5CCC(c6noc7cc(F)ccc67)CC5)C(F)(F)C4)cc3C2=O)C(=O)N1 (stereo not shown)
–	a2 (20% < a2 ≤ 30%)	a5 (53% < a5 ≤ 60%)	O=C1CCC(N2C(=O)c3ccc(CN4CCC(N5CCN(c6noc7cc(F)ccc67)CC5)C(F)(F)C4)cc3C2=O)C(=O)N1 (stereo not shown)
–	a4 (40% < a4 ≤ 53%)	a7 (70% < a7 ≤80%)	O=C1CCC(N2Cc3cc(CCCN4CCC(N5CCN(c6noc7cc(F)ccc67)CC5)C(F)(F)C4)ccc3C2=O)C(=O)N1 (stereo not shown)
–	a2 (20% < a2 ≤ 30%)	a5 (53% < a5 ≤ 60%)	O=C1CCC(N2Cc3c(CN4CCC(N5CCN(C(c6ccccc6)c6ccccc6)CC5)CC4)cccc3C2=S)C(=O)N1 (stereo not shown)
–	a2 (20% < a2 ≤ 30%)	a5 (53% < a5 ≤ 60%)	O=C1CCC(N2Cc3cccc(C(=O)N4CCC(N5CCN(c6cccc(Cl)c6Cl)CC5)C(F)(F)C4)c3C2=O)C(=O)N1 (stereo not shown)
–	a3 (30% < a3 ≤ 40%)	a7 (70% < a7 ≤80%)	O=C1CCC(N2Cc3ccc(C(=O)N4CCC(N5CCN(c6noc7cc(F)ccc67)CC5)C(F)(F)C4)cc3C2=O)C(=O)N1 (stereo not shown)
–	a6 (60% < a6 ≤ 70%)	a8 (80% < a8 ≤100%)	CC1(C)CCC(C(=O)N2CCN(C3CCN(C(=O)c4cc(F)c5c(c4)CN(C4CCC(=O)NC4=O)C5=O)CC3(F)F)CC2)=C(c2ccc(Cl)cc2)C1 (stereo not shown)
–	a5 (53% < a5 ≤ 60%)	a7 (70% < a7 ≤80%)	CC1(C)CCC(C(=O)N2CCN(C3CCN(C(=O)c4cccc5c4C(=O)N(C4CCC(=O)NC4=O)C5)CC3(F)F)CC2)=C(c2ccc(Cl)cc2)C1 (stereo not shown)
–	a4 (40% < a4 ≤ 53%)	a7 (70% < a7 ≤80%)	O=C1CCC(N2Cc3cc(CN4CCC(N5CCN(c6noc7cc(F)ccc67)CC5)CC4)cc(F)c3C2=O)C(=O)N1 (stereo not shown)
–	a6 (60% < a6 ≤ 70%)	a8 (80% < a8 ≤100%)	O=C1CCC(N2Cc3c(CN4CCC(N5CCN(c6cccc(Cl)c6Cl)CC5)C(F)(F)C4)cccc3C2=S)C(=O)N1 (stereo not shown)
–	a4 (40% < a4 ≤ 53%)	a7 (70% < a7 ≤80%)	O=C1CCC(N2Cc3cccc(C(=O)N4CCC(N5CCC(c6noc7cc(F)ccc67)CC5)C(F)(F)C4)c3C2=O)C(=O)N1 (stereo not shown)
–	a2 (20% < a2 ≤ 30%)	a6 (60% < a6 ≤ 70%)	CC1(C)CCC(CN2CCN(C3CCN(C(=O)c4cc(F)c5c(c4)CN(C4CCC(=O)NC4=O)C5=O)CC3(F)F)CC2)=C(c2ccc(Cl)cc2)C1 (stereo not shown)
–	a4 (40% < a4 ≤ 53%)	a6 (60% < a6 ≤ 70%)	O=C1CCC(N2Cc3c(CN4CCC(N5CCN(C(c6ccccc6)c6ccccc6)CC5)C(F)(F)C4)cccc3C2=S)C(=O)N1 (stereo not shown)
1000 to 1500	–	–	O=C1CCC(N2Cc3ccc(CN4CCC(N5CCN(C(c6ccccc6)c6ccccn6)CC5)C(F)(F)C4)cc3C2=S)C(=O)N1 (stereo not shown)
